Values of other authors as cited in US9952300B2, “Dynamic contrast enhanced MRI method and agents for the assessment of the macromolecular transport within pathologic tissues” (BRACCO IMAGING S.P.A., priority 2012, dated 2018).

System: A431 tumor xenograft
Conditions: high doses such as 1 mg/mouse, Lee and Tannock 2010; cited from earlier work

Substance: Cetuximab: monoclonal antibody; target: epidermal growth factor receptor
- tumor tissue from the vessels walls saturated by the mAb: 100 μm
